Assay results reported in ChEMBL document CHEMBL5042507, “One-Pot Procedure for the Synthesis of Asymmetric Substituted Ureido Benzene Sulfonamides as Effective Inhibitors of Carbonic Anhydrase Enzymes” (J Med Chem, 2022).

Biological target: Carbonic anhydrase 2 (Homo sapiens, UniProt P00918)

pKi: 9.05
Structure (SMILES): NS(=O)(=O)c1cccc(NC(=O)Nc2ccccc2)c1

pKi: −log10 of the molar value.
